Test results: PubChem BioAssay AID1195 (EPA DSSTox, 2008)

Tested on: human maximum recommended daily dose, FDA database
Test: DSSTox (FDAMDD) FDA Maximum (Recommended) Daily Dose Database
Details: TherapeuticCategory: antineoplastic; hits give low values

O[C@@H]([C@H](O)[C@H](O)CNCCCl)[C@H](O)CNCCCl
maximum recommended daily dose (mmol/kg-bw/day): 0.0109
